Measured affinities in a library of Ab-14 light chain variants

The measurements come from Engelhart et al. 2022 (doi:10.1038/s41597-022-01779-4) through the FLAb antibody collection.

Target: peptide PDVDLGDISGINAS, taken from heptad repeat 2 (HR2) of SARS-CoV-2 spike.

Each scFv is VH, three GGGGS repeats, VL, as in the parent Ab-14, and differs from it in the CDRs of the light chain only.
VH: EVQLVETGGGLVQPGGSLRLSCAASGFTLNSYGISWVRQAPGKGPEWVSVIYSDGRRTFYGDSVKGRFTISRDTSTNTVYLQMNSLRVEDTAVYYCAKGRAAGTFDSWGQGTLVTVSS
VL: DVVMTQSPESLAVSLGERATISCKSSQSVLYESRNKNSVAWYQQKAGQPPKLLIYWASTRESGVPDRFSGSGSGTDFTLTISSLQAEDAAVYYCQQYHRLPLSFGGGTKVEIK

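The parent was found by panning a naive human phage display library on the peptide. In library AAYL50, one, two or three CDR residues were substituted; doubles and triples were drawn at random. AlphaSeq pools MATa yeast showing the antibodies with MATalpha yeast showing the peptide. After mating in shaken culture at 30 °C for 16 h, diploids were selected and their barcode pairs sequenced. The ratio of observed to expected reads was calibrated, replicate by replicate, on BCL2-family standards whose Kd was known from biolayer interferometry. There are three technical replicates.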

Positions count from residue 1 of the parent VL; V29F puts F in place of V.
Affinities are written as log10 Kd with Kd in nM; a lower number is a better binder.
The mean shown is taken over the replicates in which the pair was detected.
"nd" marks a missing value. The strain was present, yet no cells mated with the target were sequenced in any replicate, which points to weak or no binding.
Entries are sorted by rising average, undetected variants last.
As a blank, each scFv also met three strains without target: over library AAYL50, 18% of these pairings were detected, typically at 4.19 and seldom below 2.99.

changes,"log10 Kd (nM), mean",replicates with signal
V29F L30T W56H,-0.06,3 of 3
V29I R34G P101H,0.45,3 of 3
E32P S33F L100E,0.55,3 of 3
V29I S33D R34V,0.67,3 of 3
Q27S R34M N35Q,0.71,3 of 3
L100E P101Y,0.74,3 of 3
N35S E61D S103C,0.88,3 of 3
V29T E61L S62N,1.03,3 of 3
S26N Q27L R34Y,1.14,3 of 3
L30Y Y31P T59F,1.46,3 of 3
S25N L30N E32G,1.51,3 of 3
L30C S62D R99W,1.53,3 of 3
S25G S26K H98L,1.59,3 of 3
V29F T59H,1.69,3 of 3
K36V Q95V L102E,1.73,3 of 3
T59S S62F H98F,1.77,3 of 3
Q27E S38H E61F,1.83,3 of 3
A57S T59Q H98M,1.83,3 of 3
A57V Q95F H98C,1.94,1 of 3
R34Y N37C Q95A,2.12,3 of 3
S33Y R99E,2.20,3 of 3
S26D V29Y N37L,2.47,3 of 3
S28Q S58F E61M,2.70,3 of 3
S62C Q96L L102M,2.86,3 of 3
S33E P101S,3.03,2 of 3
V29M E32M A40K,3.17,1 of 3
N37T L102C S103G,3.63,2 of 3
Q27M P101D S103N,4.43,2 of 3
S58P S62T P101C,4.50,2 of 3
R34S A40M R99E,4.53,2 of 3
N35W W56N L102D,4.71,3 of 3
S25P A40W R60Y,5.52,3 of 3
R60L Q96M,nd,0 of 3
E32L N37C A40T,nd,0 of 3
S38W R60M Q95D,nd,0 of 3
N35S S58G S103N,nd,0 of 3
Q95N L102M S103K,nd,0 of 3
S28K R34D Y97P,nd,0 of 3
Q27N R60N Q95P,nd,0 of 3
S25C A57Y,nd,0 of 3
S33F A57F Q96H,nd,0 of 3
E32M R34F H98L,nd,0 of 3
E32D A57W S103A,nd,0 of 3
R34S P101F L102H,nd,0 of 3
A40Q T59K Q95I,nd,0 of 3
K24Y S28P A57W,nd,0 of 3
Q27D S58P,nd,0 of 3
Y31G N35K P101L,nd,0 of 3
K24W W56V H98D,nd,0 of 3

Picked from the list: the 3 lowest averages where every replicate gave a value.

changes,"log10 Kd (nM), mean",replicates with signal
V29F L30T W56H,-0.06,3 of 3
V29I R34G P101H,0.45,3 of 3
E32P S33F L100E,0.55,3 of 3